Series [1] deals with L1210. Kind of series: The ratio of IC50 of the inhibitor (assayed in L1210 cells) in presence and absence of thymidine. In kind it is functional, Mus musculus.
The nature of series [2]: Partition coefficient (logP). Format: physicochemical. Particulars: octanol/water.
For series [3], the system named is L1210. Put plainly: Inhibition of mouse L1210 (murine leukemia) cell growth measured using a modification of the MTT36 colorimetric assay of Mosmann. In kind it is functional, cell-based.
Another series relates to CCRF-CEM. Put plainly: Inhibition of human lymphoblastic leukemia (CCRF-CEM) cell growth measured using a modification of the MTT36 colorimetric assay of Mosmann. In kind it is functional, cell-based.
Another series deals with GC3/MTK-. Put plainly: Inhibition of cellular growth in human adenocarcinoma cell line (GC3/M TK) deficient in thymidine kinase. In kind it is functional, cell-based.

The term logP denotes the decadic logarithm of the partition coefficient of the neutral form, usually between octanol and water. Low readings indicate a more hydrophilic compound, high ones a more lipophilic compound. In the case of `Cc1cc(Sc2c(C)ccc3nc(C)nc(O)c23)ccn1`, the Thymidine shift in the series with L1210 [1] is reported as above 20. The same molecule gave a logP in series [2] of 2.34. The term IC50 denotes the point on the concentration scale where inhibition reaches its midpoint. Regarding `Cc1nc(O)c2c(Sc3ccncc3)cccc2n1`, in the series with L1210 [3], the IC50 came out at 14 µM. As to `Cc1nc(O)c2c(Sc3ccc(S(=O)(=O)c4ccccc4)cc3)c(C)ccc2n1`, in the series with L1210 [1], the Thymidine shift is on record as 5.6. The molecule `Cc1nc(O)c2c(Sc3ccnnc3)c(C)ccc2n1` yielded an IC50 with CCRF-CEM of 10.5 µM. That is a double-digit micromolar value.

Turning to `COc1cc(Sc2c(C)ccc3nc(C)nc(O)c23)ccn1`, the IC50 worked out at 3.8 µM with CCRF-CEM and 3.1 µM in the series with L1210 [3].

As to `Cc1nc(O)c2c(Sc3ccnc(C(F)(F)F)c3)c(C)ccc2n1`, the figures for the IC50 with CCRF-CEM, in the series on GC3/MTK- and in the series with L1210 [3] were 8.6 µM, 15 µM and 8.1 µM, respectively.

(Values after ChEMBL document CHEMBL1126619, “Design of thymidylate synthase inhibitors using protein crystal structures: the synthesis and biological evaluation of a novel class of 5-substituted quinazolinones” (J Med Chem, 1993).)
